pIC50: −log10 of the molar value. Read-outs that look alike come from different tables or passages of the source. Bounds are passed on as bounds.

Amino acid sequences for entries named in this document (tags omitted). Residues count along the entry.
UniProt Q30154, 30-266: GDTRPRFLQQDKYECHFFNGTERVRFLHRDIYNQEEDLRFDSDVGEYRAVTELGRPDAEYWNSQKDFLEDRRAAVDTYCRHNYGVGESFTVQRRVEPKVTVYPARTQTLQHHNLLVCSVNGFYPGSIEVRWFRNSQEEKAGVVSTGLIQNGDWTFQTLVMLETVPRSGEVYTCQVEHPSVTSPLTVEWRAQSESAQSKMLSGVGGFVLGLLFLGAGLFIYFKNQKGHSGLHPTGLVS

Holding throughout (test): biochemical
Holding throughout (format): binding

The target in assay [1] is HLA-DR DRB1*0401 (DR4) (Homo sapiens, UniProt P01903+P01911, A100K/A169T/F76Y/I96L/K127E/L162R/M171V/N62H/P40V/Q125Y/R42H/S133A/S149N/S66Y/V115G/V209L/W38E).
The target in assay [2] is HLA-DR DRB4*0101 (DR53) (Homo sapiens, UniProt P01903+P13762, G164S).
Assay [3] has as its target HLA-DR DRB1*0101 (DR1) (Homo sapiens, UniProt P01903+P01911, A100R/D57E/F55L/F60I/F76Y/I96L/L162R/M171V/P40L/Q125E/R42F/V115G/Y59C).
The target of assay [4] is HLA-DR DRB5*0101 (DR51) (Homo sapiens, UniProt P01903+Q30154). The conditions noted are these: DRB5 *0101.
Assay [5] concerns the target HLA-DR DRB1*0701 (DR7) (Homo sapiens, UniProt P01903+P01911, A100R/A102G/A103Q/D57E/D86V/E43K/F76Y/K127E/L162R/M171V/P40G/Q125H/Q99D/R33Q/R42Y/R54Q/S133A/S66F/T210M/V115G/Y107V/Y59L/Y89S).
For assay [6], the target named is HLA-DR DRB1*0802 (DR8) (Homo sapiens, UniProt P01903+P01911, A100R/A103L/A169T/F76Y/H45Y/I96F/K41T/L162R/M171V/P40S/Q125H/Q178H/Q39Y/Q99D/R218S/R42G/S66Y/V115G/W38E).
Assay [7] deals with HLA-DR DRB1*0301 (DR3) (Homo sapiens, UniProt P01903+P01911, A100K/A102G/A103R/A169T/F55Y/I96L/K41T/L162R/M171V/P40S/Q125H/Q178H/Q39Y/R42S/S66N/T106N/T262R/W38E/Y61H).
In assay [8] the target is HLA-DR DRB1*0901 (DR9) (Homo sapiens, UniProt P01903+P01911, A100R/A103E/D57H/D86V/F55Y/F60I/F76Y/I96F/K127E/L162R/M171V/P40D/Q125H/Q99R/R33Q/R42F/S133A/S66N/T210M/V115G/W38K/Y107V/Y59G/Y89S). Conditions: DRB1 *0901.

In turn, `CC(C)C[C@H](NC(=O)[C@H](CO)NC(=O)[C@H](Cc1ccc(O)cc1)NC(=O)[C@@H](N)CS)C(=O)N[C@@H](Cc1ccc(O)cc1)C(=O)NCC(=O)N[C@H](C(=O)N[C@H](C(=O)N[C@@H](CC(C)C)C(=O)N[C@@H](CCC(=O)O)C(=O)N[C@@H](CCC(N)=O)C(=O)N[C@@H](CCC(N)=O)C(=O)N[C@@H](Cc1ccc(O)cc1)C(=O)N[C@@H](CC(N)=O)C(=O)N[C@@H](CCCCN)C(=O)O)[C@@H](C)O)[C@@H](C)O` gave a pIC50 in assay [1] (DRB1 *0401) of 5.88. Turning to `CC[C@H](C)[C@H](NC(=O)CNC(=O)[C@H](Cc1ccccc1)NC(=O)[C@H](CO)NC(=O)CNC(=O)[C@H](CCSC)NC(=O)[C@H](CC(C)C)NC(=O)[C@H](CC(C)C)NC(=O)[C@H](CCC(=O)O)NC(=O)[C@H](CCC(N)=O)NC(=O)[C@H](CC(C)C)NC(=O)[C@@H](NC(=O)[C@H](CCCNC(=N)N)NC(=O)[C@@H](NC(=O)[C@@H](N)CC(=O)O)[C@@H](C)CC)[C@@H](C)CC)C(=O)O`, the pIC50 in assay [1] (DRB1 *0401) is 6.78. Regarding `CC(C)C[C@H](NC(=O)[C@H](C)NC(=O)[C@H](C)NC(=O)CN)C(=O)NCC(=O)NCC(=O)N[C@@H](C)C(=O)N[C@@H](C)C(=O)N[C@@H](CCCNC(=N)N)C(=O)N[C@@H](C)C(=O)N[C@@H](CC(C)C)C(=O)N[C@@H](C)C(=O)N[C@@H](Cc1c[nH]cn1)C(=O)NCC(=O)N[C@H](C(=O)O)C(C)C`, the results for the pIC50 in assay [2] and in assay [1] were 5.45 and 4.67, respectively. `CC(C)C[C@H](NC(=O)[C@@H]1CCCN1C(=O)[C@H](C)NC(=O)CN)C(=O)NCC(=O)NCC(=O)N[C@@H](C)C(=O)N[C@@H](C)C(=O)N[C@@H](CCCNC(=N)N)C(=O)N[C@@H](C)C(=O)N[C@@H](C)C(=O)N[C@@H](C)C(=O)N[C@@H](Cc1c[nH]cn1)C(=O)NCC(=O)N[C@H](C(=O)O)C(C)C` had a pIC50 in assay [3] of 6.10.

As to `CC[C@H](C)[C@H](NC(=O)[C@H](Cc1ccc(O)cc1)NC(=O)[C@H](CC(C)C)NC(=O)[C@H](CC(C)C)NC(=O)[C@H](Cc1ccccc1)NC(=O)[C@H](CC(C)C)NC(=O)[C@H](Cc1ccccc1)NC(=O)[C@H](Cc1ccccc1)NC(=O)[C@@H](N)Cc1c[nH]cn1)C(=O)N[C@@H](CC(C)C)C(=O)N[C@@H](Cc1ccccc1)C(=O)N[C@@H](CC(C)C)C(=O)N[C@H](C(=O)N[C@@H](CCCCN)C(=O)N[C@@H](CCSC)C(=O)O)C(C)C`, the pIC50 is 5.00 in assay [4], 4.37 in assay [5] (DRB1 *0701), 4.71 in assay [6] and 6.59 in assay [1] (DRB1 *0401).

With `CC[C@H](C)[C@H](NC(=O)[C@H](C)NC(=O)[C@@H]1CCCN1C(=O)[C@H](CO)NC(=O)CNC(=O)[C@@H]1CCCN1C(=O)CNC(=O)[C@@H]1CCCN1C(=O)CNC(=O)[C@H](CC(N)=O)NC(=O)[C@H](CC(C)C)NC(=O)[C@@H](NC(=O)[C@H](CCCNC(=N)N)NC(=O)[C@@H]1CCCN1C(=O)[C@H](CO)NC(=O)[C@@H](NC(=O)[C@H](C)NC(=O)[C@H](CCC(N)=O)NC(=O)[C@@H](N)Cc1c[nH]cn1)[C@@H](C)CC)[C@@H](C)O)C(=O)N[C@@H](Cc1ccccc1)C(=O)O`, in assay [1] (DRB1 *0401), the pIC50 was 4.92. For the compound `CC[C@H](C)[C@H](NC(=O)[C@H](Cc1ccc(O)cc1)NC(=O)[C@H](CC(=O)O)NC(=O)[C@@H](N)CCCCN)C(=O)N[C@@H](CC(C)C)C(=O)N[C@@H](CC(=O)O)C(=O)N[C@@H](CC(C)C)C(=O)N[C@@H](CCC(N)=O)C(=O)N1CCC[C@H]1C(=O)N[C@@H](CCC(=O)O)C(=O)N[C@H](C(=O)N[C@H](C(=O)N[C@@H](CC(=O)O)C(=O)N[C@@H](CC(C)C)C(=O)N[C@@H](Cc1c[nH]cn1)C(=O)O)[C@@H](C)O)[C@@H](C)O`, in assay [3] (DRB1 *0101), the pIC50 is 5.19.

`CSCC[C@H](NC(=O)[C@H](CCCNC(=N)N)NC(=O)[C@H](CCCCN)NC(=O)CNC(=O)[C@H](CCCNC(=N)N)NC(=O)[C@@H](NC(=O)[C@H](Cc1ccccc1)NC(=O)[C@H](CC(=O)O)NC(=O)[C@H](CCC(=O)O)NC(=O)[C@H](CCCCN)NC(=O)[C@H](CCC(=O)O)NC(=O)[C@@H](N)CC(C)C)[C@@H](C)O)C(=O)N[C@@H](CO)C(=O)N[C@@H](CO)C(=O)N[C@@H](CC(C)C)C(=O)O`: the pIC50 is 4.29 in assay [7], less than 4.68 in assay [1] (DRB1 *0401) and less than 4.11 in assay [8].

As to `CC(C)C[C@H](NC(=O)[C@H](CCCCN)NC(=O)[C@H](Cc1c[nH]cn1)NC(=O)[C@@H](N)CC(C)C)C(=O)N[C@@H](CCC(N)=O)C(=O)N[C@H](C(=O)N[C@@H](Cc1ccc(O)cc1)C(=O)N1CCC[C@H]1C(=O)N[C@@H](CCCNC(=N)N)C(=O)N[C@H](C(=O)N[C@@H](CC(N)=O)C(=O)N[C@H](C(=O)NCC(=O)N[C@@H](CO)C(=O)NCC(=O)O)[C@@H](C)O)[C@@H](C)O)[C@@H](C)O`, the pIC50 in assay [1] (DRB1 *0401) was 4.82. For `CC[C@H](C)[C@H](NC(=O)[C@H](CC(N)=O)NC(=O)[C@H](CO)NC(=O)[C@H](CC(=O)O)NC(=O)[C@H](CO)NC(=O)[C@H](C)NC(=O)CNC(=O)[C@H](Cc1ccc(O)cc1)NC(=O)[C@@H](NC(=O)[C@H](CC(C)C)NC(=O)[C@H](CO)NC(=O)[C@@H](N)CC(N)=O)C(C)C)C(=O)N[C@@H](Cc1ccc(O)cc1)C(=O)N[C@@H](CC(=O)O)C(=O)N[C@@H](CC(C)C)C(=O)O`, in assay [3] (DRB1 *0101), the pIC50 was 4.88. On the same count and under the same terms, the figure for `CSCC[C@H](NC(=O)[C@H](CC(=O)O)NC(=O)[C@H](Cc1ccc(O)cc1)NC(=O)[C@H](CC(C)C)NC(=O)[C@@H]1CCCN1C(=O)[C@H](Cc1c[nH]cn1)NC(=O)[C@@H]1CCCN1)C(=O)N[C@@H](CO)C(=O)N[C@@H](CC(C)C)C(=O)N[C@@H](CC(C)C)C(=O)N[C@@H](CCCCN)C(=O)N[C@@H](CC(N)=O)C(=O)N[C@@H](CCCNC(=N)N)C(=O)N[C@@H](Cc1ccccc1)C(=O)N[C@@H](CC(C)C)C(=O)O` is 5.88.

As for `CC[C@H](C)[C@H](NC(=O)[C@@H](NC(=O)[C@H](CCCNC(=N)N)NC(=O)[C@H](CC(C)C)NC(=O)[C@@H]1CCCN1C(=O)[C@H](C)NC(=O)[C@H](C)NC(=O)[C@@H](N)CO)[C@@H](C)O)C(=O)N[C@H](C(=O)N[C@@H](C)C(=O)N[C@@H](CC(=O)O)C(=O)N[C@H](C(=O)N[C@@H](Cc1ccccc1)C(=O)N[C@@H](CCCNC(=N)N)C(=O)N[C@@H](CCCCN)C(=O)O)[C@@H](C)O)[C@@H](C)O`, in assay [3] (DRB1 *0101), the pIC50 is 5.93. With `CC[C@H](C)[C@H](NC(=O)[C@H](CC(C)C)NC(=O)[C@H](CC(C)C)NC(=O)[C@H](CC(C)C)NC(=O)[C@H](CS)NC(=O)[C@@H](NC(=O)[C@H](CCCNC(=N)N)NC(=O)[C@H](CC(C)C)NC(=O)[C@H](CC(C)C)NC(=O)[C@H](CCC(=O)O)NC(=O)[C@H](CC(C)C)NC(=O)[C@H](CC(N)=O)NC(=O)[C@@H](N)CO)[C@@H](C)CC)C(=O)N[C@@H](CCC(N)=O)C(=O)N[C@@H](CO)C(=O)O`, the pIC50 in assay [3] (DRB1 *0101) was 6.14. The compound `CC(C)C[C@H](NC(=O)[C@@H](N)Cc1ccc(O)cc1)C(=O)N[C@H](C(=O)N[C@@H](CS)C(=O)NCC(=O)N[C@@H](CCC(=O)O)C(=O)N[C@@H](CCCNC(=N)N)C(=O)NCC(=O)N[C@@H](Cc1ccccc1)C(=O)N[C@@H](Cc1ccccc1)C(=O)N[C@@H](Cc1ccc(O)cc1)C(=O)N[C@H](C(=O)N[C@@H](CC(=O)O)C(=O)N[C@@H](CCCCN)C(=O)N[C@H](C(=O)O)[C@@H](C)O)[C@@H](C)O)C(C)C` showed a pIC50 in assay [3] (DRB1 *0101) of 4.76.

In the case of ALGAQKEAISPPDAA, the pIC50 is less than 3.69 in assay [7] (read-out: DRB1 *0301), less than 4.15 in assay [5] (read-out: DRB1 *0701), less than 4.22 in assay [6] (read-out: DRB1 *0802) and less than 4.67 in assay [1] (read-out: DRB1 *0401). With CCTSICSLYQLENY, the pIC50 in assay [3] (read-out: DRB1 *0101) is 4.93. Consider KKPLNEILIRCIICQ, for which the pIC50 in assay [3] (read-out: DRB1 *0101) is 5.87. For the compound LEDLLMGTLGIVCP, the pIC50 in assay [3] (read-out: DRB1 *0101) was 6.98. For LSFFLKEKGGLDGL, the pIC50 in assay [1] (read-out: DRB1 *0401) was 5.89.

For MLDLQPETTDLYCYE, in assay [3] (read-out: DRB1 *0101), the pIC50 was 5.00.

With TCCYTCGTTVRLCIN, the pIC50 in assay [3] (read-out: DRB1 *0101) is 5.91.

(Values after patent US20060079453A1, “Hla binding peptides and their uses” (priority 2002, published 2006).)
